# Target: NLRP3 (Homo sapiens, UniProt Q96P20)
# Chains of the proteins cited; added tags and fusions are not shown.
# UniProt Q96P20, whole entry: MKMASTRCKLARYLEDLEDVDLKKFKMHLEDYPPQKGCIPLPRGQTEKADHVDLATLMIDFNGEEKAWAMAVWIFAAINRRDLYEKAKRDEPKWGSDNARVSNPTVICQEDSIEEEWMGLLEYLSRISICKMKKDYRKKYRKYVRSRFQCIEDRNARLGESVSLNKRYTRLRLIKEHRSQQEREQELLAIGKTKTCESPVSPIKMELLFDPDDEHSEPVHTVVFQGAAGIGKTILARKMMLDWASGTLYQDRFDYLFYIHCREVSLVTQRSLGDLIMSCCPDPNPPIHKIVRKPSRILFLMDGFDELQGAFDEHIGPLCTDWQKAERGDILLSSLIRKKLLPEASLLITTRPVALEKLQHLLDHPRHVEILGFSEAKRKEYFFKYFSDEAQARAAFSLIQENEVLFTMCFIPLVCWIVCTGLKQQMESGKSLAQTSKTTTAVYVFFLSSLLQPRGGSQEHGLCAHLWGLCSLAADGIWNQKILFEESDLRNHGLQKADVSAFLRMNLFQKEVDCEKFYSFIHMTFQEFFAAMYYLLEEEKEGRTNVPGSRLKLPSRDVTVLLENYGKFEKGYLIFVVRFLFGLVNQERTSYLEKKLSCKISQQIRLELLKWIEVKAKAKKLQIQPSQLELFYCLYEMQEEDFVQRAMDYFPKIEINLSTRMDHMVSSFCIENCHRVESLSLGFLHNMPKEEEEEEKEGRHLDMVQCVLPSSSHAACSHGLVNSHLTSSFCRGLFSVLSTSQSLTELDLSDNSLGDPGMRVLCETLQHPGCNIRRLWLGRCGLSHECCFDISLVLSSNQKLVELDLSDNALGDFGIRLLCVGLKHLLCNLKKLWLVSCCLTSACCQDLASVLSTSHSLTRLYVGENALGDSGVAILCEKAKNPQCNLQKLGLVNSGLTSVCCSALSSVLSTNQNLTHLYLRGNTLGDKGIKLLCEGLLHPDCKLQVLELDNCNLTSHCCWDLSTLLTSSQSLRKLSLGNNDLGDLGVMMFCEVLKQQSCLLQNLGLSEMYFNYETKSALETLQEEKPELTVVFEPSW
# Experiment: Detecting IC50 of NLRP3 inhibitor by using THP-1 cells (IL-1β secretion, CBA)
# Format: cell-based
# Details: PMA/LPS/ATP, IL-1β in supernatant
row,IC50 [nM],SMILES
1,33.4,"Cc1cc(NC2COC3(CCN(C)CC3)C2)nnc1-c1ccc2sccc2c1O (single isomer, unassigned) [Compound 68a]"
2,24.3,"Cc1cc(NC2COC3(CCN(C)CC3)C2)nnc1-c1ccc2sccc2c1O (single isomer, unassigned) [Compound 68b]"
3,28,Cc1cc(N[C@@H]2CCCN(C3COC3)C2)nnc1-c1ccc(C2CCCCC2)cc1O

# Source: US20240166610A1, “SUBSTITUTED PYRIDAZINE PHENOL DERIVATIVES” (MEDSHINE DISCOVERY INC., priority 2021, published 2024)
